{
  "sequences": {"note": "Protein sequences, listed by entry. Tags and fused reporters are not part of them.", "UniProt Q16654, whole entry, species assumed": "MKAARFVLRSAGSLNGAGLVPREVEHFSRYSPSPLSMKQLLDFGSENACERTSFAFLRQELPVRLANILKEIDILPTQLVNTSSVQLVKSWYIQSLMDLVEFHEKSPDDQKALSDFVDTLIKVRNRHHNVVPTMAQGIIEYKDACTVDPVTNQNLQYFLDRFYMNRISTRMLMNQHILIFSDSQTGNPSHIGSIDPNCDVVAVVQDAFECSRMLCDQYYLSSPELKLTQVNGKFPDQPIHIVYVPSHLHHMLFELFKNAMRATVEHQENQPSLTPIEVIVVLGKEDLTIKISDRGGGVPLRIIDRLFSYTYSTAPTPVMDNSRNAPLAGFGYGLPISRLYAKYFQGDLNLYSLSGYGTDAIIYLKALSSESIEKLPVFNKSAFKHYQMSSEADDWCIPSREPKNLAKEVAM"},
  "source": "patent US20150344404A1",
  "about": "“PDK4 INHIBITOR AND USE THEREOF” (THE KITASATO INSTITUE, priority 2012, published 2015)",
  "origin": "cited, not measured here",
  "molecular_target": "PDK4 (Homo sapiens, UniProt Q16654)",
  "conditions": "background art; cited from earlier work",
  "data": [
    {"compound": "O=C(O)C(Cl)Cl", "note": "[Dichloro acetic acid]", "values": [
      {"measurement": "effect on PDK4 activity", "result": "weak inhibitory activity"}
    ]}
  ]
}
